Literature values, collected in US20150246056A1, “METHODS FOR TREATING OR PREVENTING SYMPTOMS OF HORMONAL VARIATIONS” (priority 2006, published 2015).

Tested on: muscarinic cholinergic receptors
Settings: tested at concentrations >10^−5 M; cited from earlier work

Cc1nc2n(c(=O)c1CCN1CCC(c3noc4cc(F)ccc34)CC1)CCCC2 [risperidone]
affinity for muscarinic cholinergic receptors: no affinity
